Results as given in ChEMBL document CHEMBL1143582, “Discovery of the alpha7 nicotinic acetylcholine receptor agonists. (R)-3'-(5-Chlorothiophen-2-yl)spiro-1-azabicyclo[2.2.2]octane-3,5'-[1',3']oxazolidin-2'-one as a novel, potent, selective, and orally bioavailable ligand” (J Med Chem, 2005).

Amino acid sequences for entries named in this document (tags omitted). A change or cut given only in a name is not applied to a line headed by its entry.
UniProt P09483: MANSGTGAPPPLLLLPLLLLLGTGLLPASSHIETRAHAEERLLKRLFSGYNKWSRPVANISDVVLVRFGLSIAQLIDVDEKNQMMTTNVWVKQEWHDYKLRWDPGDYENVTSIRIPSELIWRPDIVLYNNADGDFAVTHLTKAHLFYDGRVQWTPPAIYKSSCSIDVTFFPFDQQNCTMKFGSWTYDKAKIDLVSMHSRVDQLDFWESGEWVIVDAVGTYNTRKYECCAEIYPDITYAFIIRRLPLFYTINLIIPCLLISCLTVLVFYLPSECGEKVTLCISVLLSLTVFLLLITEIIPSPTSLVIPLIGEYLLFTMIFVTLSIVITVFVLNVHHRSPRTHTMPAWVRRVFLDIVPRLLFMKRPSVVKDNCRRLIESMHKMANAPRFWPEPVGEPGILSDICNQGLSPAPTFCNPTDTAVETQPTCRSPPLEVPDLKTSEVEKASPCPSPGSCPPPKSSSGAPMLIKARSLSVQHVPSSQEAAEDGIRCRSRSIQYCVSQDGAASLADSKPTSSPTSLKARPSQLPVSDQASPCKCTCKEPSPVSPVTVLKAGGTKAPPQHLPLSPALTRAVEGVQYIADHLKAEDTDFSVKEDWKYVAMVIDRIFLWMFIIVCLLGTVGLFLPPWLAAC
UniProt P12390, whole entry: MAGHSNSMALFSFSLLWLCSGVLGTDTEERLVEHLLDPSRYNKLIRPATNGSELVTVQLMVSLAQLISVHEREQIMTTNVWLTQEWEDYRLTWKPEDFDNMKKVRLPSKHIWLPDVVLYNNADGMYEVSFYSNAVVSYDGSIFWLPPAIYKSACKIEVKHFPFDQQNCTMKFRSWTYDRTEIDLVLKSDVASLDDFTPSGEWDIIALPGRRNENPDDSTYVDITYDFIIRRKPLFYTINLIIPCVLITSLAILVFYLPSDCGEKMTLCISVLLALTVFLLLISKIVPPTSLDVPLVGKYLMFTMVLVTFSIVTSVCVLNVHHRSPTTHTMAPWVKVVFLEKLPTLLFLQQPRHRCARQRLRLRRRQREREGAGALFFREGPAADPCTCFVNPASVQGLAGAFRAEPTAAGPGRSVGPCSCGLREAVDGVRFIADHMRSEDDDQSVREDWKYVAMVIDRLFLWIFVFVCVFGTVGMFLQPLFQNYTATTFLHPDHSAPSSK
UniProt Q05941, whole entry: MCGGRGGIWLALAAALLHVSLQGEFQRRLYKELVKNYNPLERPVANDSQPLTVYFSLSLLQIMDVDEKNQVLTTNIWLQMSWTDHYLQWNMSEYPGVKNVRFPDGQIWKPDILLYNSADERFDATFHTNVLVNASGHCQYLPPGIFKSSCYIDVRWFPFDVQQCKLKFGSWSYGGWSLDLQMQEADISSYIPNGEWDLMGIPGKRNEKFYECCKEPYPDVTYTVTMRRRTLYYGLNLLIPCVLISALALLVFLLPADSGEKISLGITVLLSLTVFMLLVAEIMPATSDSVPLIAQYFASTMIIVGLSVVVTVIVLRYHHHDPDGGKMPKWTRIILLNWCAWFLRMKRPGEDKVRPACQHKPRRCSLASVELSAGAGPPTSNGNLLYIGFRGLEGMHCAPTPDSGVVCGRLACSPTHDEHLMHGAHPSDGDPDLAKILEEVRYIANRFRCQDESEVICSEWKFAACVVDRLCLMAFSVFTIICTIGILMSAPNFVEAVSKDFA

How the values were obtained:
[1] = target: Neuronal acetylcholine receptor; alpha4/beta2 (Rattus norvegicus, UniProt P09483+P12390); experiment: Inhibition of [3H]-Cytisine binding to nicotinic acetylcholine receptor alpha4-beta2 from rat cerebral cortex; format: tissue-based
[2] = target: Neuronal acetylcholine receptor subunit alpha-7 (Rattus norvegicus, UniProt Q05941); experiment: Inhibition of [125I]alpha-bungarotoxin binding to rat nicotinic acetylcholine receptor alpha7
Outline: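 Membranes from Wistar rat hippocampus made by sucrose homogenisation and differential centrifugation, then resuspended in 118 mM NaCl, 4.8 mM KCl, 2.5 mM CaCl2, 1.2 mM MgCl2, 20 mM Na-HEPES pH 7.5. Incubated with [125I]-α-bungarotoxin plus compounds, 37 °C, 3 h. Bound label collected by filtration. Nonspecific binding defined with 100 µM (−)-nicotine.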

Structure (SMILES)	IC50 [1]	Ki [2]
O=C1NC[C@@]2(CN3CCC2CC3)O1	> 10000 nM	–
O=C1O[C@]2(CN3CCC2CC3)CN1c1ccc2ccccc2n1	–	450 nM
